Values quoted from earlier work as cited in PMC9841521, “Subnanomolar Affinity and Selective Antagonism at α7 Nicotinic Receptor by Combined Modifications of 2-Triethylammonium Ethyl Ether of 4-Stilbenol (MG624)” (Journal of Medicinal Chemistry, 2022).

Test system: α7-nAChRs
Parameters: method as in PMID 34756924
Conditions: cited from earlier work

CC[N+](CC)(CC)CCOc1ccc(/C=C/c2ccccc2)cc1.[I-] [Compound 1a, triethylammonium ethyl ether of 4-stilbenol]
α7-nAChR partial agonist response (100 μM application): ≈ 40 % of the 200 μM ACh control stimulation
behaviour at the α7-nAChRs (in words): very weak partial agonist
